Experimental data taken from ChEMBL document CHEMBL1201862, “PubChem BioAssay data set” (2004).

Amino acid sequences for entries named in this document (tags omitted). A change or cut given only in a name is not applied to a line headed by its entry.
UniProt P05187: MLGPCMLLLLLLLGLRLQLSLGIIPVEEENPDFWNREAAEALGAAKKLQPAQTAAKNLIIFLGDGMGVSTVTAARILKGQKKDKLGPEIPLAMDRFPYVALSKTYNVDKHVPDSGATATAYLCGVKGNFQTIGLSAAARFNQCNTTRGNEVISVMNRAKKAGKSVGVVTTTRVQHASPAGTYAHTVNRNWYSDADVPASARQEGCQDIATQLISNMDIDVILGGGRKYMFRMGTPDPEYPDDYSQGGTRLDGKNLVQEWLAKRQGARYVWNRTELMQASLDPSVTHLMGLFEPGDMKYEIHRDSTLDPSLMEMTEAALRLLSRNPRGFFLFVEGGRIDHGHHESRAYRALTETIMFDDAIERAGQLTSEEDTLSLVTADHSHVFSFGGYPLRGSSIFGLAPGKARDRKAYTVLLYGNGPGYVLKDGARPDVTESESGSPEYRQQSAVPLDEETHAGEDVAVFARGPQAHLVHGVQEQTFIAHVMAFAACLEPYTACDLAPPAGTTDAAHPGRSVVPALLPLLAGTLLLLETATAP
UniProt P98170, whole entry: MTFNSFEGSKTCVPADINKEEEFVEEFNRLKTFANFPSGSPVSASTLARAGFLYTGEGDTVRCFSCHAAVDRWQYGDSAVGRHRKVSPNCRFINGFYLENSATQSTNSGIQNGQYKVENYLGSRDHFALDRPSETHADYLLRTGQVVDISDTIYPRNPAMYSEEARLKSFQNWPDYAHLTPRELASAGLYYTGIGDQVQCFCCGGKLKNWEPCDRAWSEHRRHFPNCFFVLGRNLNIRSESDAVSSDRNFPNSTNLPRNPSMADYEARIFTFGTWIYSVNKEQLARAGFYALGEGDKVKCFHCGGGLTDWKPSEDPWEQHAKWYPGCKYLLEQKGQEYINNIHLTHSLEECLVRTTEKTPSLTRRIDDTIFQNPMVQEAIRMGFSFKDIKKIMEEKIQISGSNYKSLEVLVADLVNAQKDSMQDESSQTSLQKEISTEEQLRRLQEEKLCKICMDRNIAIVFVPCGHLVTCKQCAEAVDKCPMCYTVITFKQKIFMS

Legend:
[1] = target: Alkaline phosphatase, placental type (Homo sapiens, UniProt P05187); test: PLAP enzyme inhibitors, confirmation, biochemical, luminescence (AID 1512); format: functional
[2] = target: T1, Protein phosphatase methylesterase 1 (Homo sapiens, UniProt Q9Y570); test: PME-1 inhibitor potency by in-gel ABPP, dose response, selectivity assay for PME-1 inhibitor project, cell lysate, mouse brain cytosol, FP-rhodamine, panel member PME-1 Assay Panel member description: Inhibition of endogenously expressed PME-1 (AID 2366)
T1 sequence (Q9Y570 whole entry): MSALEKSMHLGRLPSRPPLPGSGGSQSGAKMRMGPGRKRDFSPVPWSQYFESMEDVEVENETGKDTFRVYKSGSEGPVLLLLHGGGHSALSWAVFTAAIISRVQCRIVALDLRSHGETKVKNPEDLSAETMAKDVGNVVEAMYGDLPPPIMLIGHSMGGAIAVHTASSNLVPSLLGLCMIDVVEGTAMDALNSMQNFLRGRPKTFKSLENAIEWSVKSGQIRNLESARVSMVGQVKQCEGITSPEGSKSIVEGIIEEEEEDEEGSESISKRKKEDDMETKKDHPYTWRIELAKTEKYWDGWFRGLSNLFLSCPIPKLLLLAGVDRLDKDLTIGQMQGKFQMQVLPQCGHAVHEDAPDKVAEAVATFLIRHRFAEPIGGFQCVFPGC

[3] = Artemis endonuclease inhibitor potency, dose response, biochemical, fluorescence intensity (AID 720701); format: functional;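 further: Artemis endonuclease enzyme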
[4] = target: T2, E3 ubiquitin-protein ligase XIAP (Homo sapiens, UniProt P98170); test: SAR analysis of Antagonists of IAP-family anti-apoptotic proteins. [Related pubchem assays (depositor defined):AID1018, AID1449, AID1513, AID1514, AID1638]
[5] = target: T2, E3 ubiquitin-protein ligase XIAP; test: SAR analysis of Antagonists of XIAP-Bir3 domain of IAP-family anti-apoptotic proteins. [Related pubchem assays (depositor defined):AID1018, AID1449, AID1513, AID1514, AID1638]

Structure (SMILES): Cc1cc(C)nc(SCC(=O)c2ccc(O)c(O)c2)n1
- IC50 [1]: active: 1.21 µM

Structure (SMILES): N#C/C(=C\c1cccn1S(=O)(=O)c1cccc([N+](=O)[O-])c1)S(=O)(=O)c1ccc(F)cc1
- IC50 [2]: active: 0.5 µM

Structure (SMILES): CN[C@@H](C)C(=O)N[C@H](C(=O)N1CCC[C@H]1C(=O)N[C@H]1CCCc2ccccc21)C(C)C
- IC50 [4]: active: 9.5 µM
- IC50 [5]: active: 3.7 µM

Second part, the compound after the results:

- IC50 [3]: inactive: > 20 µM
Structure (SMILES): Nc1nn2c(O)c3c(nc2c1N=Nc1ccccc1)CCCC3

- IC50 [1]: active: 4.73 µM
Structure (SMILES): Cn1c(SCC(=O)c2ccc(O)c(O)c2)nnc1-c1ccccc1

One block for each compound: values may come before it. Active and inactive are the calls of the source.
